Patent US20250127790A1, “COMBINATION THERAPY USING VPS34 INHIBITORS” (Deciphera Pharmaceuticals, LLC, priority 2021, published 2025)

System: A-498 cells
Assay: Western blot, STAT1 phosphorylation in A-498 cells
Type: cell-based, human
Conditions: 5 ng/mL recombinant IFNβ, positive control
Procedure: A-498 cells were seeded at 1.5×10^5 cells/well in 6-well plates and cultured overnight. Cells were treated with 10 μg/mL mouse monoclonal antibody to human interferon α/β receptor chain 2 (α-IFNAR2) (clone: MMHAR-2, #21385-1, PBL Assay Science) or 10 μg/mL mouse IgG2a isotype control antibody (clone: eBM2a, #16-4724-81, Thermo Fisher Scientific). After 1 h, DMSO or 2 μM Compound 1 was added and cells were incubated for another 24 h. Treatment with 5 ng/mL recombinant IFNβ (#300-02BC, PeproTech) was used as a positive control. A-498 cells were washed in PBS and lysed in RIPA buffer (50 mM Tris HCl pH=7.4, 150 mM NaCl, 1% Triton X-100, 0.5% Na-deoxycholate, 0.1% SDS) containing protease inhibitor cocktail (#11836170001, Roche), and phosphatase inhibitor (#11836170001, Roche) for 10 min at 4° C. After centrifugation at 15000 rpm for 10 min at 4° C., the supernatant was obtained, and protein concentration was quantified using BCA assay (#23225, Thermo Fisher). Equal amounts were mixed with 0.1 M DTT and LDS Sample Buffer (#84788, Thermo Fisher), heated for 5 min at 90° C. before loading onto 4-12% Bis-Tris gels. Proteins were transferred to nitrocellulose membranes. […] Band intensities were quantified using Image Studio Lite software version 5.2.5 (LI-COR).

B1: IFNβ: recombinant IFNβ (#300-02BC, PeproTech) used as a positive control (protein, UniProt P01574 22-187, looked up)
Interferon beta: MSYNLLGFLQRSSNFQCQKLLWQLNGRLEYCLKDRMNFDIPEEIKQLQQFQKEDAALTIYEMLQNIFAIFRQDSSSTGWNETIVENLLANVYHQINHLKTVLEEKLEKEDFTRGKLMSSLHLKRYYGRILHYLKAKEYSHCAWTIVRVEILRNFYFINRLTGYLRN
- STAT1 phosphorylation: increased
